Holding throughout (assay): biochemical
Assay [1] deals with T1, Arabidopsis HPPD single point mutant SEQ ID No. 46 (Arabidopsis thaliana, UniProt P93836, K421I).
T1 construct: made in house; host or cells: E. coli BL21 (DE3)
From the text:
(§1) In this content, pI50-value means the log value of the concentration of inhibitor necessary to inhibit 50% of the enzyme activity in molar concentration.

Protein sequences, listed by entry. Tags and fused reporters are not part of them. Chains listed by the source or under a name are the forms on record and can include a tag or linker.
UniProt P93836, other isoform, or with tags, fused parts or gaps K421I: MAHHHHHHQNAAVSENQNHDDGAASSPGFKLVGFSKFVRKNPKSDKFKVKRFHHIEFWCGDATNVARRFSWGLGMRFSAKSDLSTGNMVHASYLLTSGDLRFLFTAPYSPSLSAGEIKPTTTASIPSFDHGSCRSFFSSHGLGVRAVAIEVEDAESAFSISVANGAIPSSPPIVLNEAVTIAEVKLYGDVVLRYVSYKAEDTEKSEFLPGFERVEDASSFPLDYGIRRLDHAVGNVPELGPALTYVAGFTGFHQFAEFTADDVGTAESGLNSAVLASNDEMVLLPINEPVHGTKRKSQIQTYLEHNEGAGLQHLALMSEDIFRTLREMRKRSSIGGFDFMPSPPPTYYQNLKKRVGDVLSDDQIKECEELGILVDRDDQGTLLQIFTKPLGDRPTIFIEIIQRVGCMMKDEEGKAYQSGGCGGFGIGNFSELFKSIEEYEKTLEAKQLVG
UniProt P93836, other isoform, or with tags, fused parts or gaps V269A: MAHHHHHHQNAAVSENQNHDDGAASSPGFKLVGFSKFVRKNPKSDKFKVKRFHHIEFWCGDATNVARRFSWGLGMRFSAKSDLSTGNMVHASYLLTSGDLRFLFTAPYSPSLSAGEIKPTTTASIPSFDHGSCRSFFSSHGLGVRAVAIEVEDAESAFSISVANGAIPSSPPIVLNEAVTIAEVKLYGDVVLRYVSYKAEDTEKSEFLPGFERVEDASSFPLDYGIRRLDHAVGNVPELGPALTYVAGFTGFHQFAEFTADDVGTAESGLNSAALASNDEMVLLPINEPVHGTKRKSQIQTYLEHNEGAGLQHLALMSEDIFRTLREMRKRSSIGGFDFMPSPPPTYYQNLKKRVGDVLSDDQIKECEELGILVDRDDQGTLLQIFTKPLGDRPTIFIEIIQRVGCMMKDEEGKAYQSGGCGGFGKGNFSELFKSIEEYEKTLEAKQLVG
UniProt P93836, other isoform, or with tags, fused parts or gaps P280A: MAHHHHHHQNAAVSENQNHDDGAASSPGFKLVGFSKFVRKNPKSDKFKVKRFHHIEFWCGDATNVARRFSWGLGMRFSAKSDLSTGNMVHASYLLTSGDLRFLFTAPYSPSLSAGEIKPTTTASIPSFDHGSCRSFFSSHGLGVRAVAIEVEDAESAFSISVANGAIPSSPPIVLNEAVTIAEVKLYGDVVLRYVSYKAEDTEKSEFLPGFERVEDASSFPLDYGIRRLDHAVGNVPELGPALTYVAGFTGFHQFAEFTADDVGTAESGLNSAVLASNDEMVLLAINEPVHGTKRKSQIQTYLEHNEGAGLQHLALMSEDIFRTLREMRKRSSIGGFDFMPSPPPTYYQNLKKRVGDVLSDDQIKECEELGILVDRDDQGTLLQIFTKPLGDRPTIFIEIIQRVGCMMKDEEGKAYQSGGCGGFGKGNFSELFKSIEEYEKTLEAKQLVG
UniProt P93836, other isoform, or with tags, fused parts or gaps L368M: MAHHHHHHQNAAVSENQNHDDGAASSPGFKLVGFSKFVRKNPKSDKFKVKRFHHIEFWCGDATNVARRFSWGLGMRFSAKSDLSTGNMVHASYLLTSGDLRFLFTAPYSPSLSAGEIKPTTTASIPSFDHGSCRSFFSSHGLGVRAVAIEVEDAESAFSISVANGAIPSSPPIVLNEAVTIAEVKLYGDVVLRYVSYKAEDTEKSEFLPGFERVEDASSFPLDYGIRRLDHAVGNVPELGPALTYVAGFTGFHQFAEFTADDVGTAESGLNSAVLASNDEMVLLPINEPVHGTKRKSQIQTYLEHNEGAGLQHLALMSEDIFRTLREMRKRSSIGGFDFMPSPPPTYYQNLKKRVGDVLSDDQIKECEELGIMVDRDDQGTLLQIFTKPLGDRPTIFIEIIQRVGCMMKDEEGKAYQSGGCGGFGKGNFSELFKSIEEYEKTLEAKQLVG
UniProt P93836, whole entry E252S: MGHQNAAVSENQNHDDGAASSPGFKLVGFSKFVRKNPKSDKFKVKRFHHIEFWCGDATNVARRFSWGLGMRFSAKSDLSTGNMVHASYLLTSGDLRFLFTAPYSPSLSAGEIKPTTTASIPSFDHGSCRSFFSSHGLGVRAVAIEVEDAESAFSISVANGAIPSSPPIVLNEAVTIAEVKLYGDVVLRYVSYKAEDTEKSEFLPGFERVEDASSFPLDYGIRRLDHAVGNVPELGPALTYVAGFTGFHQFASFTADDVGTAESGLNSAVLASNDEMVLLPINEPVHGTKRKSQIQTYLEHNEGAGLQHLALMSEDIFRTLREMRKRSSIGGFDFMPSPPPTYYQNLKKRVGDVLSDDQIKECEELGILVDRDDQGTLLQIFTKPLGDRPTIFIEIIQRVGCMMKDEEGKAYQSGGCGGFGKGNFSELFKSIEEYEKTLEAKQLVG
UniProt P93836, other isoform, or with tags, fused parts or gaps K421Q: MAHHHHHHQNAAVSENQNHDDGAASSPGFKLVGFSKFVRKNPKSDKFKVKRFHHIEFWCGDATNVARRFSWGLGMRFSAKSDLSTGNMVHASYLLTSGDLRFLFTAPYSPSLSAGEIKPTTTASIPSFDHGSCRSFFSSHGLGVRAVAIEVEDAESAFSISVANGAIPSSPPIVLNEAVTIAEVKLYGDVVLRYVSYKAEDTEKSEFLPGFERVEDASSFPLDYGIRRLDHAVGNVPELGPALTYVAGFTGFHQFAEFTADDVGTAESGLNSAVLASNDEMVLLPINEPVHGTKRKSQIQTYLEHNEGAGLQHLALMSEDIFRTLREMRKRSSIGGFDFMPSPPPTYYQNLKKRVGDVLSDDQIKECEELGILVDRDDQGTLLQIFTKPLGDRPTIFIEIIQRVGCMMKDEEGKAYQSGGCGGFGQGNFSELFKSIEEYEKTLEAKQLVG
UniProt P93836, other isoform, or with tags, fused parts or gaps K421V: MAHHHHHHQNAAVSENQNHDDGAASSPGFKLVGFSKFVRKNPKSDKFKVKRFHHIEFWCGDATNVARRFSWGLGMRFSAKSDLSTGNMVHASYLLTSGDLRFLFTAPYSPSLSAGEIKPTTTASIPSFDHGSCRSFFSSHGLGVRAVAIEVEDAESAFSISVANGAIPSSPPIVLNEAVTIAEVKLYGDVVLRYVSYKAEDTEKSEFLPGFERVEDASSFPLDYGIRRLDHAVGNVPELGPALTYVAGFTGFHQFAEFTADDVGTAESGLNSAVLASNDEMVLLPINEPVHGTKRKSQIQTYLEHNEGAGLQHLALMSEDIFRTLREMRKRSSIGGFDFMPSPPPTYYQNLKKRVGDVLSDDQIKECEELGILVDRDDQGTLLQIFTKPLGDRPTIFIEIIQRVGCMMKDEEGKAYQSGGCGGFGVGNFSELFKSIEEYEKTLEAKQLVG

Assay [2] has as its target T2, Arabidopsis HPPD single point mutant SEQ ID No. 40 (Arabidopsis thaliana, UniProt P93836, V269A).
T2 construct: made in house; host or cells: E. coli BL21 (DE3)
Text: as §1

Assay [3] deals with T3, Arabidopsis HPPD single point mutant SEQ ID No. 42 (Arabidopsis thaliana, UniProt P93836, P280A).
T3 construct: made in house; host or cells: E. coli BL21 (DE3)
Text: as §1

The target of assay [4] is T4, Arabidopsis HPPD single point mutant SEQ ID No. 44 (Arabidopsis thaliana, UniProt P93836, L368M).
T4 construct: made in house; host or cells: E. coli BL21 (DE3)
Text: as §1

Assay [5] has as its target T5, Arabidopsis HPPD single point mutant SEQ ID No. 35 (Arabidopsis thaliana, UniProt P93836, E252S).
T5 construct: made in house; host or cells: E. coli BL21 (DE3)
Text: as §1

The target of assay [6] is T6, Arabidopsis HPPD single point mutant SEQ ID No. 48 (Arabidopsis thaliana, UniProt P93836, K421Q).
T6 construct: made in house; host or cells: E. coli BL21 (DE3)
Text: as §1

The target of assay [7] is T7, Arabidopsis HPPD single point mutant SEQ ID No. 50 (Arabidopsis thaliana, UniProt P93836, K421V).
T7 construct: made in house; host or cells: E. coli BL21 (DE3)
Text: as §1

A word on the IC50: it is the concentration needed to halve the response being measured. Low values mean inhibition by little substance, high ones a need for much substance.

With `CS(=O)(=O)c1cc(C(F)(F)F)ccc1C(=O)C(C#N)C(=O)C1CC1` (centres unmarked) [Diketonitrile, 2-cyano-3-cyclopropyl-1-(2-methylsulphonyl-4-trifluoromethylphenyl)-propane-1,3-dione], the IC50 is 10 µM in assay [1]; 6.31 µM in assay [2]; 6.31 µM in assay [3]; 2.51 µM in assay [4]; 12.6 µM in assay [5]; < 2.51 µM in assay [6]. In assay [7], this compound gave an IC50 of 7.94 µM.
Turning to `CS(=O)(=O)c1ccc(C(=O)C2C(=O)CCCC2=O)c(Cl)c1COCC1CCCO1` (centres unmarked) [Tefuryltrione, 2-[2-chloro-4-(methylsulfonyl)-3-[[(tetrahydro-2-furanyl)methoxy]methyl]benzoyl]-1,3 cyclohexanedione], the IC50 was 6.31 µM in assay [1]; 3.98 µM in assay [2]; 3.16 µM in assay [3]; < 2.51 µM in assay [4]; 6.31 µM in assay [5]; < 2.51 µM in assay [6]. The compound also had an IC50 in assay [7] of 3.98 µM.

Values taken from patent publication US20250223607A1, “HPPD Variants and Methods of Use” (BASF Agricultural Solutions Seed US LLC, priority 2013, published 2025).
